Source: patent publication US20250042968A1, “EPHRIN LIGAND MIMETIC PEPTIDES FOR THE TREATMENT OF NEURODEGENERATIVE DISEASES” (University of Miami, priority 2022, published 2025)

Chains of the proteins cited; added tags and fusions are not shown. Residues count along the entry.
UniProt P29317, 24-976, species assumed: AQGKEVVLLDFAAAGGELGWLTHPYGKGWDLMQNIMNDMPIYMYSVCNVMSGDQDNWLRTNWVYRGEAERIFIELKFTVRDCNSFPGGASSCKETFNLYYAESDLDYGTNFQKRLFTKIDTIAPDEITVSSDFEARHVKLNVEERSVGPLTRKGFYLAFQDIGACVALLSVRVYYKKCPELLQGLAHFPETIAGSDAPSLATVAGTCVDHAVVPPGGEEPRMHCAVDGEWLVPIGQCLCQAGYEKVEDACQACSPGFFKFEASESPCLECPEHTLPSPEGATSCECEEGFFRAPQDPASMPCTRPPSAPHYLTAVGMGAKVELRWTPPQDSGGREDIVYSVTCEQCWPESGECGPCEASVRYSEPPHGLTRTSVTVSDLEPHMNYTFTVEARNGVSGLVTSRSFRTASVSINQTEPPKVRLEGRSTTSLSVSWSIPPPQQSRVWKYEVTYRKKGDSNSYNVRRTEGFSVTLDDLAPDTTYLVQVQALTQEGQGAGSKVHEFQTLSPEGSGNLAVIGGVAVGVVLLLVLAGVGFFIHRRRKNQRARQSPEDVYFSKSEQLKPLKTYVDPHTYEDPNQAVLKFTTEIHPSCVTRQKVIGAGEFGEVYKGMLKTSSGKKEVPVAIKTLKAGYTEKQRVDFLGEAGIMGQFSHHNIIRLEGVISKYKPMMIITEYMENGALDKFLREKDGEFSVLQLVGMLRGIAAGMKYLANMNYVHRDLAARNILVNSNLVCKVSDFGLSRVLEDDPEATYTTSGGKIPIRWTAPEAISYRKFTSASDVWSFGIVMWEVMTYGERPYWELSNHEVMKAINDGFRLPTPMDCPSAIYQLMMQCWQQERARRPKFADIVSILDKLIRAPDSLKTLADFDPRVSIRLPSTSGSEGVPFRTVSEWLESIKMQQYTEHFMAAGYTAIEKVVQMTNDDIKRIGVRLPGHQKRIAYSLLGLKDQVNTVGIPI

How the values were obtained:
EphB2 = EphB2 (Homo sapiens, UniProt P29323); test: Label-free Biolayer Interferometry (BLI) binding kinetics, EphB2
EphB3 = biological target: T1, EphB3 (Homo sapiens, UniProt P54753); test: Label-free Biolayer Interferometry (BLI) binding kinetics, EphB3
T1 sequence (P54753 34-998): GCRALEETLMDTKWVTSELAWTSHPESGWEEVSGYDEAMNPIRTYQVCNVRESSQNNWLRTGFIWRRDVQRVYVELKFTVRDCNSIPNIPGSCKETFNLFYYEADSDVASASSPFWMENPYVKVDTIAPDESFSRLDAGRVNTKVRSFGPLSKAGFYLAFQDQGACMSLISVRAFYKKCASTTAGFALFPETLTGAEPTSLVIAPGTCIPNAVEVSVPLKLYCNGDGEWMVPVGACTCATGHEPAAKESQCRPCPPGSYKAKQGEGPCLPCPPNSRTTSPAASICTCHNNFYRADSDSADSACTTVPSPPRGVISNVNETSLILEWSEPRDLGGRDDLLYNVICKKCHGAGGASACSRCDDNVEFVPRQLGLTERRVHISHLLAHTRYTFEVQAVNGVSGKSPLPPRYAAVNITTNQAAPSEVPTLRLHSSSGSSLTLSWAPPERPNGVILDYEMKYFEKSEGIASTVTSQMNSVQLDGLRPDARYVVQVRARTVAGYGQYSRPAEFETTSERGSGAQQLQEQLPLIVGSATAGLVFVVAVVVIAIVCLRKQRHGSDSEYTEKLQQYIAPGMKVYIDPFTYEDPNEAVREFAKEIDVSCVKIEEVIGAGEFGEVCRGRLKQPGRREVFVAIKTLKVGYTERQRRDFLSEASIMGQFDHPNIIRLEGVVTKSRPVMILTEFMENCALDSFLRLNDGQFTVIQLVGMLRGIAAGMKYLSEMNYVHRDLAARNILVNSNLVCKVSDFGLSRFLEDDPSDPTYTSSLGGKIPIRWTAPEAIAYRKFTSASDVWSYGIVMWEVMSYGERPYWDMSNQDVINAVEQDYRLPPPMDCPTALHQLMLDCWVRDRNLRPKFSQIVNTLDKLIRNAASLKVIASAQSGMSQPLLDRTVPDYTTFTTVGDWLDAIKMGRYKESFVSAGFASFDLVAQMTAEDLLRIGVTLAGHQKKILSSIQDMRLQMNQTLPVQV
Experimental: (§1) In this example, the binding kinetics of xEFN_RBD2, xEFN_RBD3, and xEFN_RBD4 were assayed for binding and dissociation from EphA2, EphB2, and EphB3. Additionally, a known EphB2 targeting peptide sequence (SNEW) was tested concurrently. […]. Growth Factors. 2014 Dec; 32(6):236-46). […]. J Biol Chem. 2007 Dec. 14; 282(50):36505-13. Label-free Biolayer Interferometry (BLI) was used to determine binding kinetics for the assayed peptides. Binding kinetics were measured using a ForteBio Octet TX biolayer interferometry instrument (Molecular Devices ForteBio LLC, Fremont, CA) according to manufacturer instructions. Binding response was recorded and specific signal was normalized by subtracting background control from the dataset. Data analysis was performed with Octet Data Analysis HT 10.0 software. BLI was used to assay kinetic binding constants (Ka, Kd) and equilibrium binding constants (affinity, Ka=1/Kd). Response was measured as a nm shift in the interference pattern and is proportional to the number of molecules bound to the surface of the biosensor. Response was plotted in sensorgrams for the 4 test peptides with binding kinetics toward 3 Eph receptors: FIG. 23A for EphA2, FIG. 23B for EphB2, and FIG. 23C for EphB3. Response was plotted on the y-axis and time was plotted on the x-axis. […].

EphB2 to ephrinB1 = biological target: T2, EphB2 to ephrinB1 (Homo sapiens, UniProt P29323); test: In vitro binding assay, percent binding of EphB2 to ephrinB1; details: EphB2 50 ng/ml and 200 ng/mL
T2 sequence (P29323 19-543 limits assumed): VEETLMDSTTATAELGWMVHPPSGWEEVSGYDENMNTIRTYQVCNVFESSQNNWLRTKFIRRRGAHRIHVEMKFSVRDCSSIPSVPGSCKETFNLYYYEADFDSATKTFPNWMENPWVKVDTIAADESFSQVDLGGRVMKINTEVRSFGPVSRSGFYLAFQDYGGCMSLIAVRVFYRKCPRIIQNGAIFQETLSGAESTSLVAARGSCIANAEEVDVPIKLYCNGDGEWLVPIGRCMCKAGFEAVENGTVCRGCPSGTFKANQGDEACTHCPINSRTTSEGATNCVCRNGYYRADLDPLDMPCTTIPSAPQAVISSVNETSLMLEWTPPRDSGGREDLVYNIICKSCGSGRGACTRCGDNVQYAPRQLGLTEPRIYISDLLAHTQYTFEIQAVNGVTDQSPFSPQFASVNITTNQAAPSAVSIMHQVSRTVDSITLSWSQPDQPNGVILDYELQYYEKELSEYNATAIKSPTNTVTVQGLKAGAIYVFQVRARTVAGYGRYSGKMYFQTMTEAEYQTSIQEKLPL
Excerpt: EphB2 (PDB: 2QBX) is a synthetic construct described in Chrencik J E et al. 2007. […] Key molecular interactions between xEFN_RBD3 and the EphB2 ligand binding pocket (LBP) are shown in the diagram of FIG. 24B and listed in Table 2 below. In Table 2, under interaction type, H-bond refers to a hydrogen bond and ionic refers to an ionic bond.

EphA2 = EphA2 (Homo sapiens, UniProt P29317); test: Label-free Biolayer Interferometry (BLI) binding kinetics, EphA2
Experimental: as §1

isolated mouse RGCs = test: Neurite outgrowth, long-term (6 days), Incucyte Zoom live cell imaging; format: cell-based; details: 1 μM, end of 6-day period
Experimental: Mouse retinal ganglion cells (RGC): Mouse R GCs were isolated as follows. Briefly, retinas from postnatal day 8-10 (p8-10) mouse pups were dissected and digested using a papain solution (16.5 U/mL) for 30 minutes at 37° C. Following dissociation, macrophage and endothelial cells were removed from the cell suspension by panning with the anti-macrophage antiserum (Accurate Chemical, Westbury, NY). Finally, RGCs were immunopanned in plates containing the antibody against Thy1.2 and were then released by incubation with trypsin solution. RGCs were grown on poly-L-lysine coated plates in serum-free Neurobasal media (Invitrogen, Carlsbad, CA), supplemented with B-27 supplement, CNTF (10 ng/ml), and BDNF (10 ng/ml).
mRGCs were used to analyze dendrite sprouting, axonal polarization and extension, and ephrin receptor phosphorylation following treatment with xEFN peptides. RGCs were isolated as described above and plated onto 24 well plates at a concentration of 4×10^4 cells/well for short-term (48 h) experiments, or into 96-well plates at a concentration of 1,000 cells/well for long-term (6 days) experiments in an Incucyte Zoom (Essen Biosciences) instrument for live cell imaging. […] Neurite sprouting and extension were quantified using the automated Incucyte Zoom NeuroTrack Processing algorithm for real-time, label-free neurite segmentation and quantitation (FIG. 13).

**Q.** What does the source list for FTIKFQEFSPNLWGL [xEFN_RBD3]?
**A.** binding to EphB2 (BLI, fitted dissociation constant) (EphB2): strong binding; binding to EphB3 (BLI, fitted dissociation constant) (EphB3): strong binding; percent binding of EphB2 to ephrinB1 in the presence of increasing peptide concentration (EphB2 to ephrinB1): competitive antagonist action; binding to EphA2 (BLI, fitted dissociation constant) (EphA2): strong binding

**Q.** How did the “increase in overall neurite length over day 0 measurement” value (isolated mouse RGCs) turn out when “SNEWIQPRLPQH [published EphB2 targeting peptide, reference compound]” was run?
**A.** 145.31+/−18.48%
